Compound activity from PubChem BioAssay.
UUG fidelity: yeast start codon fidelity modulation | S. cerevisiae UUG-firefly luciferase reporter, luminescence/redox ratio | activity score, % at 18.7 µM | 0.13% of 350,000 active | AID 602363;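 active means replicate mean at a twofold rise or more, about +100% in these data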;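 further: firefly luciferase made from a UUG start codon reports start codon fidelity; reporter light over untreated wells divided by growth signal over untreated wells; some hits fall short of that in this replicate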
miR-122 sensor: miR-122 Renilla sensor signal increase in Huh7, primary screen, miR-122 inhibitor project, cell-based, single point, plate reader; Huh7 miR-122 Renilla luciferase sensor, 48 h; neutral wells = 0, positive control = 100; activation (reporter increase), % at 12.5 µM; actives 0.3% (n = 340,000); AID 602342, 2012;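 active means mean replicate activation score at least 90 and every replicate individually at or above 90; inconclusive means only one of the two criteria met; inactive means neither criterion met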;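 further: higher luciferase means less miR-122 activity so hits act as miR-122 inhibitors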
Wnt act: Wnt/beta-catenin pathway activators, primary screen, cell-based, plate reader, single point | Wnt/beta-catenin reporter cell assay, activator | actives 1.2% (n = 300,000) | activation, % at 9.35 µM; in the data active means activation above about 30%, passing the limit was not always enough; inconclusive means no clear call, values can overlap the other calls;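 further: 0% = neutral control wells and 100% = positive control wells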
MITF TRPM1 HTS: activators of MITF-driven TRPM1 promoter reporter, primary screen, cell-based, SK-MEL-5, luciferase, single point. SK-MEL-5 TRPM1-promoter luciferase, 24 h; % of positive control, neutral wells = 0. activation, % at 12.5 µM. actives 0.75% (n = 300,000). AID 588334, 2011;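 active means mean activation of at least 80% with every replicate also reaching 80%; inconclusive means mean reaches 80% but some replicate falls short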;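 further: 0% = neutral control wells and 100% = parthenolide positive control wells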
TRPM1 prom inh: inhibitors of MITF-dependent TRPM1 promoter reporter, primary screen, cell-based, SK-MEL-5, single point, luciferase | AID 488899, 2010 | inhibition, % at 12.5 µM | SK-MEL-5 TRPM1 promoter luciferase, 24 h | actives 0.83% (n = 330,000);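 active means mean inhibition across replicates of 60% or more, whatever share of single replicates reaches that level; inconclusive means some that reach 60%, reason not given; inactive means mean inhibition across replicates below 60%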
PGC1a acetyl inh: inhibitors of PGC1a acetylation signal, primary screen, cell-based, U2OS, AlphaScreen, inhibitor mode; inhibition, % at 15.6 µM; AlphaScreen anti-acetyl-lysine; with virally co-expressed GCN5 acetyltransferase; actives 0.17% (n = 350,000);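 active means every replicate shows inhibition of at least 40%; inconclusive means mean inhibition at least 40% but some replicate below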;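 further: 0% = neutral control wells and 100% = positive control wells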
* hit, by the source's call; [ ] = another dose, or the depositor's remark. An excerpt weighted towards active compounds, which were near 2.1% of everything screened.

For O=C1C=CCCN1C(=O)/C=C/c1ccccc1Cl the results were PGC1a acetyl inh 73*.
Screening COc1cc(C=CC(=O)c2cc(OC)c(OC)c(OC)c2)cc(OC)c1OC returned Wnt act 4, MITF TRPM1 HTS -69 and TRPM1 prom inh 67*.
Screening COc1cc(/C=C/C(=O)N2CCC=CC2=O)cc(OC)c1OC returned UUG fidelity -16, miR-122 sensor -16, Wnt act inconclusive, MITF TRPM1 HTS -91 and TRPM1 prom inh 92*.
`COc1ccc(S(=O)(=O)N(C)C[C@@H]2Oc3ccc(NS(=O)(=O)c4cn(C)cn4)cc3C(=O)N([C@H](C)CO)C[C@H]2C)cc1` gave UUG fidelity -7, miR-122 sensor 3[16.7 µM] and PGC1a acetyl inh -4.
`O=C(C[C@H]1C[C@@H]2c3cc(NC(=O)CC4CC4)ccc3O[C@@H]2[C@H](CO)O1)NCc1cccc(F)c1` gave UUG fidelity -7, miR-122 sensor 8[16.7 µM] and PGC1a acetyl inh -4.
`C[C@H]1CN([C@@H](C)CO)C(=O)c2cc(-c3ccc(F)cc3)cnc2O[C@H]1CN(C)C(=O)Nc1ccccc1F` gave UUG fidelity -6, miR-122 sensor -1[16.7 µM] and PGC1a acetyl inh -6.
For O=C(NCCCN1CCOCC1)c1ccc(/C=C2\Oc3ccccc3N(Cc3ccccc3F)C2=O)cc1 the results were UUG fidelity -2, miR-122 sensor -6, Wnt act -2, MITF TRPM1 HTS 21, TRPM1 prom inh -20 and PGC1a acetyl inh -14.
CCN1CCN(CCCNC(=O)c2ccc(/C=C3/Oc4ccccc4N(Cc4cccc(C)c4)C3=O)cc2)CC1 was read as UUG fidelity 5, miR-122 sensor 8, MITF TRPM1 HTS -74, TRPM1 prom inh 76* and PGC1a acetyl inh -2.
Screening CCOC(=O)C1=C(C)N=c2s/c(=C\c3cccc(OCC(=O)O)c3)c(=O)n2C1c1ccccc1OC (stereo unspecified) returned UUG fidelity -23, Wnt act 1, MITF TRPM1 HTS 0, TRPM1 prom inh 1 and PGC1a acetyl inh 55*.
`CCOC(=O)C1=C(C)N=c2s/c(=C/c3ccc(OCC(=O)O)cc3)c(=O)n2C1c1cc(OC)c(OC)c(OC)c1` (stereo unspecified) gave UUG fidelity 17, miR-122 sensor 0, Wnt act 0, MITF TRPM1 HTS -1, TRPM1 prom inh -2 and PGC1a acetyl inh 3.
Screening O=C(CCC(=O)OCC(=O)c1cccc([N+](=O)[O-])c1)Nc1cccc(Cl)c1Cl returned UUG fidelity -18, miR-122 sensor -5, Wnt act 40*, MITF TRPM1 HTS -7, TRPM1 prom inh 14 and PGC1a acetyl inh 8.
Screening Cc1ccccc1NC(=O)CCC(=O)OCC(=O)c1cccc([N+](=O)[O-])c1 returned UUG fidelity -4, miR-122 sensor -7, Wnt act -1, MITF TRPM1 HTS -3, TRPM1 prom inh 4 and PGC1a acetyl inh -1.
Screening C[C@H](O)C#Cc1cnc2c(c1)C(=O)N([C@H](C)CO)C[C@H](C)[C@H](CN(C)Cc1cccc(F)c1)O2 returned UUG fidelity -11, miR-122 sensor 1[16.7 µM] and PGC1a acetyl inh -3.
Screening C=CCC[C@H](Cc1ccc(F)cc1)C(=O)OC[C@H](Cc1c[nH]c2ccccc12)NC(=O)[C@@H](CC=C)CC(=O)N[C@@H](CO)Cc1ccccc1 returned UUG fidelity -18, miR-122 sensor 1, Wnt act -18, MITF TRPM1 HTS -74 and TRPM1 prom inh 75*.
`C=CCC[C@@H](Cc1ccc(F)cc1)C(=O)OC[C@H](Cc1c[nH]c2ccccc12)NC(=O)[C@@H](CC=C)CC(=O)N[C@H](CO)Cc1ccccc1` gave UUG fidelity -19, miR-122 sensor -34, Wnt act -8, MITF TRPM1 HTS -16 and TRPM1 prom inh 15.

A portion from further up, as a working copy:
Screening Cc1ccccc1NC(=O)CCC(=O)OCC(=O)c1cccc([N+](=O)[O-])c1 returned UUG fidelity -4, miR-122 sensor -7, Wnt act -1, MITF TRPM1 HTS -3, TRPM1 prom inh 4 and PGC1a acetyl inh -1.
Screening C[C@H](O)C#Cc1cnc2c(c1)C(=O)N([C@H](C)CO)C[C@H](C)[C@H](CN(C)Cc1cccc(F)c1)O2 returned UUG fidelity -11, miR-122 sensor 1[16.7 µM] and PGC1a acetyl inh -3.

The listing continues:
CCOc1cc(/C=N/NC(=O)CSc2nnc(C)s2)ccc1OCc1ccccc1Cl was read as Wnt act 52*, MITF TRPM1 HTS -3, TRPM1 prom inh 7 and PGC1a acetyl inh 2.
`O=C(CSc1nnc(SCc2ccccc2Cl)s1)N/N=C/c1ccc(C(=O)O)cc1` gave UUG fidelity -15, miR-122 sensor -5, Wnt act 19, MITF TRPM1 HTS 10, TRPM1 prom inh -10 and PGC1a acetyl inh 15.
For NC(=O)c1ccc(-c2noc(-c3cccc(Cl)c3)n2)cc1 the results were UUG fidelity -5, miR-122 sensor -5, Wnt act 36*, MITF TRPM1 HTS 125* and TRPM1 prom inh -126.
For O=C(O)c1cccc(-c2noc(-c3cccc(Cl)c3)n2)c1 the results were UUG fidelity -40, miR-122 sensor 2, Wnt act 37*, MITF TRPM1 HTS -91, TRPM1 prom inh 92* and PGC1a acetyl inh 2.
Screening COc1cc(-c2noc(-c3cccc(Cl)c3)n2)cc(OC)c1OC returned UUG fidelity -2, miR-122 sensor -6, Wnt act -4, TRPM1 prom inh -8 and PGC1a acetyl inh -4.
Screening Cn1cnc(S(=O)(=O)N2CCCCN3[C@H](CO)[C@H](c4ccc(C#CC5CC5)cc4)[C@H]3C2)c1 returned miR-122 sensor 14[16.7 µM] and PGC1a acetyl inh 9.
`CCOc1ccc(CCNC(=O)COC(=O)c2cccc(N(C)C)c2)cc1OCC` gave miR-122 sensor 5, Wnt act 51*, MITF TRPM1 HTS 44, TRPM1 prom inh -42 and PGC1a acetyl inh -3.
CCC(=O)Nc1ccc2c(c1)C(=O)N(C)C[C@@H](OC)[C@H](C)CN(Cc1ccc(-c3ccccn3)cc1)[C@H](C)CO2 was read as UUG fidelity 11, miR-122 sensor -3[16.7 µM] and PGC1a acetyl inh -5.
Screening CC(C)CCC(CC(C)O)C(=O)NNC(=S)Nc1ccccc1 (stereo unspecified) returned UUG fidelity -24, miR-122 sensor 152*, Wnt act 2, MITF TRPM1 HTS -1 and TRPM1 prom inh -3.
`CO[C@H]1CN(C)C(=O)c2ccc(NS(=O)(=O)c3ccccc3)cc2OC[C@H](C)N(Cc2cccnc2)C[C@@H]1C` gave PGC1a acetyl inh -8.
Screening O=C(C1CC1)N1CCc2cc(Br)cc(S(=O)(=O)N3CCCCCC3)c21 returned Wnt act 41* and TRPM1 prom inh -1.
Nc1nonc1C(=O)N1CCCC1 was read as UUG fidelity -17, miR-122 sensor 247*, MITF TRPM1 HTS -2, TRPM1 prom inh 5 and PGC1a acetyl inh -9.
`Nc1nonc1/C(=N/O)N1CCCC1` gave UUG fidelity -2, miR-122 sensor -2, TRPM1 prom inh 2 and PGC1a acetyl inh -6.

Pulled one by one from the entries so far, 2 records:
Nc1nonc1C(=O)N1CCCC1 was read as UUG fidelity -17, miR-122 sensor 247*, MITF TRPM1 HTS -2, TRPM1 prom inh 5 and PGC1a acetyl inh -9.
CCC(=O)Nc1ccc2c(c1)C(=O)N(C)C[C@@H](OC)[C@H](C)CN(Cc1ccc(-c3ccccn3)cc1)[C@H](C)CO2 was read as UUG fidelity 11, miR-122 sensor -3[16.7 µM] and PGC1a acetyl inh -5.
